Assay results from patent US10787490B2, “Peptide inhibitors of interleukin-23 receptor and their use to treat inflammatory diseases” (Protagonist Therapeutics, Inc., priority 2015, dated 2020).

Assays:
[1] = target: human IL-23R (IL23R_huFC) (Homo sapiens, UniProt Q5VWK5)
[2] = target: IL-23R-expressing DB cells (Homo sapiens, UniProt Q5VWK5); format: cell-based
[3] = DTT stability assay (redox stability); format: in vitro ADME; conditions: half-life, 0.5 mM DTT, room temperature; for DTT Stability: numeric
[4] = Stability in simulated gastric fluid (SGF); format: in vitro ADME
[5] = tested on: panel of 44 targets (GPCRs, transporters, ion channels); conditions: concentrations of up to 10 piM
human IL-12Rβ1 = human IL-12Rβ1 (Homo sapiens, UniProt P42701); conditions: read-out: Selectivity (ELISA, nM) IL-23/IL-12Rβ1, IC50
[6] = Stability in human intestinal fluid; format: in vitro ADME
human IL6R = target: T1, human IL6R (Homo sapiens, UniProt P08887); assay: cell free ELISA for human IL6R (IL-6/IL-6R); format: binding; conditions: read-out: Selectivity (ELISA, nM) IL-6/IL-6R, IC50
T1 sequence (P08887 20-468): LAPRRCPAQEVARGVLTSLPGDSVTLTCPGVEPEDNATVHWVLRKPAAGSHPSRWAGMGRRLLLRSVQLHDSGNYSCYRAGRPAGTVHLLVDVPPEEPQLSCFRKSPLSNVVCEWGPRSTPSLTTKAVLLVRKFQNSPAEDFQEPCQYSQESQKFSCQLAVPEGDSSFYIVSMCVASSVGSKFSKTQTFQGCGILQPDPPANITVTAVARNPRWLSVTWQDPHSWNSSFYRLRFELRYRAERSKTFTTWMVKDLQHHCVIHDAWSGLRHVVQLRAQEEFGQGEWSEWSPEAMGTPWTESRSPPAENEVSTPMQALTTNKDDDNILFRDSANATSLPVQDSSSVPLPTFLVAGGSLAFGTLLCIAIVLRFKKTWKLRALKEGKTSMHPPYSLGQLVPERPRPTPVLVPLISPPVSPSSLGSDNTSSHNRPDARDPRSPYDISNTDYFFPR

[7] = Stability in simulated intestinal fluid (SIF); format: in vitro ADME
[8] = target: T2, Natural killer (NK) cells (Homo sapiens, UniProt Q5VWK5); assay: NK Cell Assay (IL-23-dependent IFNγ production); format: cell-based
T2 sequence (Q5VWK5 24-629): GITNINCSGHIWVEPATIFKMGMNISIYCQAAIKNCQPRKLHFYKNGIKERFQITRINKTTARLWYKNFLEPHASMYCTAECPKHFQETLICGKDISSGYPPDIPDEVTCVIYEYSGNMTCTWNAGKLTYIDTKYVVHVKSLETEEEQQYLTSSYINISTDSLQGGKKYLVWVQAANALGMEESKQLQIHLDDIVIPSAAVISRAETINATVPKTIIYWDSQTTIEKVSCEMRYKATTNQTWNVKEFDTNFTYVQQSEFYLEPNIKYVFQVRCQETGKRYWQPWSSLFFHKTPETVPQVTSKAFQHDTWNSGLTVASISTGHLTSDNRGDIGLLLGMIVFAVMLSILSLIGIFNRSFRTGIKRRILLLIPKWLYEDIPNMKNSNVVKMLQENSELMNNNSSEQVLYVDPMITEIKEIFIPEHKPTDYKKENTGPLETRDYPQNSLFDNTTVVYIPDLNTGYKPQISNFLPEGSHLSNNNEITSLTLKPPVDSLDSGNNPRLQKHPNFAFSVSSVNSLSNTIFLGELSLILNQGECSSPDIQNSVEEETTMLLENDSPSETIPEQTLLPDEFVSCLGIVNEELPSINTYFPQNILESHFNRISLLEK

Mouse IL-23R = target: T3, Mouse IL-23R (Mus musculus, UniProt Q8K4B4); assay: Mouse IL-23R Competitive Binding ELISA; conditions: read-out: Cross Reactivity (nM) ELISA mouse IL23R IL23
T3 sequence (Q8K4B4 24-374 limits assumed): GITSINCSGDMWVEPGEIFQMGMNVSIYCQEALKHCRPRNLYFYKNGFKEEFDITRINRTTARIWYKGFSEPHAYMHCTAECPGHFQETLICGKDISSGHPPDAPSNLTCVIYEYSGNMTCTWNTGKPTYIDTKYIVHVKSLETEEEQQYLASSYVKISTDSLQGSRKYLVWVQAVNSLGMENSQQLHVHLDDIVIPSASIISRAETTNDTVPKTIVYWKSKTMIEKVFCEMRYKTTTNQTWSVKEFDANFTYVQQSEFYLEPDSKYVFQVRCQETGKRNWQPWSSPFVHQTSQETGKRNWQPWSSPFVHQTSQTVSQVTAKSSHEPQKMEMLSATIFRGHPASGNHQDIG

[9] = read-out: Human IL-23R Activity (nM) ELISA huIL23R IL23
[10] = read-out: Human IL-23R Activity (nM) Cell Assay pSTAT3 HTRF
[11] = Table E13, IL-23 + IL-18 stimulated human NK cells, IFNγ, read-out: NK cell assay (nM), IC50

Ac-CQTWQCYWRENG-NH2 [SEQ ID NO: 219]
IC50 [1, 9]: < 250 nM | IC50 [2, 10]: < 250 nM

Hy-CSNWVCYWHTYG-NH2 [SEQ ID NO: 198]
IC50 [1, 9]: < 250 nM | IC50 [2, 10]: < 250 nM

[Ac-[Pen]-QTWQ-[Pen]-[Phe(4-CONH2)]-[2-Nal]-[α-MeLys]-[Lys(Ac)]-NN-NH2]2DIG [SEQ ID NO: 534]
DTT Stability [3]: >120 min

Ac-[Pen]-QTWQ-[Pen]-YW-[α-MeLeu]-ENG-NH2
DTT Stability [3]: >120 min

Ac-Cyclo-[[Abu]-QTWQC]-[Phe[4-(2-aminoethoxy)]-W-[α-MeLys]-ENG-NH2
DTT Stability [3]: >120 min

Ac-[[Pen]-QTWQ-[Pen]-YW-[hLeu]-ENG-NH2
DTT Stability [3]: >120 min

Ac-Cyclo-[[Abu]-RTWQQ-YWRKFG-[AEA]-[(D)Lys]-NH2
DTT Stability [3]: >120 min

Ac-CADWVWCYWHTFGA-+[Azt]-[(D)Lys]-NH2
DTT Stability (min) ([3]; class symbol): * (* = 10-120 min)

Ac-[Pen]-NTWQ-[Pen]-[Phe[4-(2-aminoethoxy)]-[2-Nal]-[4-amino-4-carboxy-tetrahydropyran]-[Lys(Ac)]—NN—NH2 [SEQ ID NO: 1185]
Stability (t1/2, hr) SGF [4]: 12 h | SGF t1/2 (min) ([4]; Table E33): >180, min | activity in safety panel of 44 targets (change in target's activity greater than 25%) [5]: no activity | IC50 ([1]; read-out: ELISA (nM) Hu, IC50, IL-23/IL-23R competitive binding, human): 2 nM | pIC50 ([1]; read-out: ELISA IL23R/IL23 in nMoles (IC50), non-cyclic peptides): 5.14 | pIC50 ([1]; read-out: Human ELISA, Table E31): > 8.00 | pIC50 ([2]; Table E31, class symbols, read-out: pStat3 HTRF): > 8.00 | IC50 ([2]; read-out: Cell assay (nM) Hu DB Cell (pSTAT3), IC50): 2 nM | IC50 (human IL-12Rβ1): > 100000 nM | Stability (t1/2, hr) HIF [6]: 24 h | IC50 (human IL6R): > 100000 nM | Stability (t1/2, hr) SIF [7]: 33 h | SIF t1/2 ([7]; Table E33): >180 min | IC50 ([8]; IFNγ produced by human NK cells exposed to IL-23, read-out: Cell assay (nM) Hu NK cell, IC50): 3.9 nM

Hy-CADWVCYWHTFG-NH2 [SEQ ID NO: 169]
IC50 ([1]; read-out: ELISA IL23R/IL23 in nM): 100 to 1000 nM | IC50 [1, 9]: 251 to 1000 nM | IC50 [2, 10]: 251 to 1000 nM | pIC50 ([2]; read-out: pStat3 HTRF in nMoles): 6.00 to 7.00 | IC50 (Mouse IL-23R): > 25000 nM

Ac-CADWVCYWHTFGER-NH2 [SEQ ID NO: 230]
IC50 [1, 9]: < 250 nM | IC50 [2, 10]: < 250 nM

Ac-Cyclo-[[Abu]-QTWQC]-[Phe(4-OMe)]-[2-Nal]-[-MeLys]-ENG-NH2
DTT Stability [3]: >120 min

Ac-CRTWECYWHEFG-NH2 [SEQ ID NO: 217]
DTT Stability [3]: <10 min

Hy-CRTWQCYWRKFG-NH2 [SEQ ID NO: 253]
IC50 [8, 11]: < 25 nM

[Ac-[Pen]-QTWQ-[Pen]-[Phe(4-OMe)]-[2-Nal]-[α-MeLys]-[Lys(Ac)]-NN-NH2]2DIG [SEQ ID NO: 532]
IC50 ([8]; Table 14, IL-23 + IL-18 stimulated human NK cells, IFNγ, read-out: NK Cell assay (nM), IC50): < 10 nM

Ac-CRDWQCYWHKFG-[AEP]-[(D)Lys]-OH [SEQ ID NO: 213]
IC50 [1, 9]: < 250 nM | IC50 [2, 10]: < 250 nM

Ac-[Pen]-QTWQ-[Pen]-[Phe(4-Ome)]-[2-Nal]-[α-MeLys]-ENG-NH2
DTT Stability [3]: >120 min

Hy-CRDWQCYWHKFG-NH2 [SEQ ID NO: 197]
IC50 [1, 9]: 251 to 1000 nM | IC50 (Mouse IL-23R): > 25000 nM

[D-Arg]-Cyclo-[[Abu]-QTWQC]-[Phe(4-2ae)]-[2-Nal]-[THP]-ENN-NH2
pIC50 ([2]; thioether dimers, read-out: pStat3 HTRF): > 8.00

Hy-CQTWVCYWHTYG-NH2 [SEQ ID NO: 93]
IC50 [8, 11]: < 25 nM

pIC50: −log10 of the molar value. Where two headings read alike, the source gives them in different places.
